By IC50 is commonly meant the concentration that inhibits the measured activity by half. A higher IC50 goes with weaker potency in that assay.

Chains of the proteins cited; added tags and fusions are not shown.
UniProt P28482, whole entry: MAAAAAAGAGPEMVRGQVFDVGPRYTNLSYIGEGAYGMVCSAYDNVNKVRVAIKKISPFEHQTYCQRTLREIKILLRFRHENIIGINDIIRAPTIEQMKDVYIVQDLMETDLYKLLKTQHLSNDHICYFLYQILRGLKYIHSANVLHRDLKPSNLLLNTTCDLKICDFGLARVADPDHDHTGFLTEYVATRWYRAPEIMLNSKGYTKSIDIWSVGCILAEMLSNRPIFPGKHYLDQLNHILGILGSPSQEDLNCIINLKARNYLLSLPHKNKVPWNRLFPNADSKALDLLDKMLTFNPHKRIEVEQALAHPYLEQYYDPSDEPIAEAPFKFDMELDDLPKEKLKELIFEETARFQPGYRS

The experiment deals with Mitogen-activated protein kinase 1 (Homo sapiens, UniProt P28482). As to the kind of experiment: Inhibition of ERK2 (unknown origin).

The compound `Cn1cc(-c2cnc3ccc(NC(=O)NCc4ccccc4)nc3c2)cn1` registered an IC50 of 30 nM.

Values taken from ChEMBL document CHEMBL3351448, “Discovery of (7-aryl-1,5-naphthyridin-2-yl)ureas as dual inhibitors of ERK2 and Aurora B kinases with antiproliferative activity against cancer cells” (Bioorg Med Chem Lett, 2014).
